Target: MAGL (Homo sapiens, UniProt Q99685)
Experiment: 2-AG assay (MAGL inhibitory activity, hydrolysis of 2-arachidonoylglycerol followed by mass spectrometry)
Conditions: read-out: MAGL IC50, 50 pM MAGL, 8 μM 2-arachidonoylglycerol, 15 min pre-incubation, 30 min incubation at RT
Procedure: Compounds were profiled for MAGL inhibitory activity by determining the enzymatic activity by following the hydrolysis of the natural substrate 2-arachidonoylglycerol resulting in arachidonic acid, which can be followed by mass spectrometry. This assay is hereinafter abbreviated “2-AG assay”.
The 2-AG assay was carried out in 384 well assay plates (PP, Greiner Cat# 784201) in a total volume of 20 μL. Compound dilutions were made in 100% DMSO (VWR Chemicals 23500.297) in a polypropylene plate in 3-fold dilution steps to give a final concentration range in the assay from 12.5 μM to 0.8 pM. 0.25 μL compound dilutions (100% DMSO) were added to 9 μL MAGL in assay buffer (50 mM TRIS (GIBCO, 15567-027), 1 mM EDTA (Fluka, 03690-100 ml), 0.01% (v/v) Tween. After shaking, the plate was incubated for 15 min at RT. To start the reaction, 10 μL 2-arachidonoylglycerol in assay buffer was added. The final concentrations in the assay was 50 pM MAGL and 8 μM 2-arachidonoylglyerol. After shaking and 30 min incubation at RT, the reaction was quenched by the addition of 40 μL of acetonitrile containing 4 μM of d8-arachidonic acid. The amount of arachidonic acid was traced by an online SPE system (Agilent Rapidfire) coupled to a triple quadrupole mass spectrometer (Agilent 6460). […] The activity of the compounds was calculated based on the ratio of intensities [arachidonic acid/d8-arachidonic acid].

Chains of the proteins cited; added tags and fusions are not shown.
UniProt Q99685, whole entry: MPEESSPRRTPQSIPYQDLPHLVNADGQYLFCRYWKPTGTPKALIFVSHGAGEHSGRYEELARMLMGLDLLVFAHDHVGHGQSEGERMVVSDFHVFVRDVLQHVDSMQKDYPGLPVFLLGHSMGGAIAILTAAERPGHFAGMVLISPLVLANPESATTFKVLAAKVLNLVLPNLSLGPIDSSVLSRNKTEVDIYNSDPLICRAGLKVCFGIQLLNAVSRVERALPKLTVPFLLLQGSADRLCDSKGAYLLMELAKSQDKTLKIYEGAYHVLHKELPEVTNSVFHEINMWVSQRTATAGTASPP

IC50: 54.5 nM
SMILES: O=C1CO[C@H]2CCN(C(=O)N3CC4CC3CC4OCc3cc4c(cn3)CCCC4)C[C@H]2N1 (single isomer, unassigned)

Reference: patent publication US20210094971A1, “HETEROCYCLIC COMPOUNDS” (Hoffmann-La Roche Inc., priority 2019, published 2021)
